From patent US20050058640A1 (BAXTER INTERNATIONAL, published 2005)

By UniProt entry, the sequences of proteins in these tests, tags left out.
UniProt P00742, whole entry, looked up: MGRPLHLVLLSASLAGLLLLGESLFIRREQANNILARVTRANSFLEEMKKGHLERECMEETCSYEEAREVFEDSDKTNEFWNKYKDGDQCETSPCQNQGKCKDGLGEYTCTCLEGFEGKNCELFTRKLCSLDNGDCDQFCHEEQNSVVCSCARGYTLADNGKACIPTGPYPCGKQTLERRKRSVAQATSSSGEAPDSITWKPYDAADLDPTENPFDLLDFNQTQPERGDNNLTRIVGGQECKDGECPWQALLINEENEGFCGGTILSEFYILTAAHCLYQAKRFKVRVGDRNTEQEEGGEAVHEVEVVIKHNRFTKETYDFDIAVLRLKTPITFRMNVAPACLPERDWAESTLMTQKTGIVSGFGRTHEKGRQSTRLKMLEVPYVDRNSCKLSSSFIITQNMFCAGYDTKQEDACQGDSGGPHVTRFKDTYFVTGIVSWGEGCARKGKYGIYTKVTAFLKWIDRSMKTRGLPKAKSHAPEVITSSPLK

Target: human factor X (UniProt P00742)

Work on human factor IXa yielded a KM of 34.2 nM, a Vmax of FX activation of 0.063 nM/min and a kcat of 0.0057 min⁻¹. It also gave a kcat/KM of 0.00016 min⁻¹ nM⁻¹.
